Some results for these compounds are left out of this collection, so the calls shown say nothing about other tests.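 Grown in 96-well plates, cells were treated for 48 hours with each compound at five concentrations. Insufficient inhibition: endpoint recorded as highest concentration tested. Abbreviation: GI50, concentration required for 50% inhibition of growth. TGI: concentration producing complete growth inhibition.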
Experiments:
Test in all cases: inhibition of tumour cell growth, NCI panel, 48 h
[1] = test system: LOX IMVI melanoma
[2] = test system: MOLT-4 leukemia
[3] = test system: SK-MEL-2 melanoma
[4] = test system: HCC-2998 colon
[5] = test system: A549 NSCLC
[6] = test system: SK-MEL-28 melanoma
[7] = test system: PC-3 prostate
[8] = test system: SR leukemia
[9] = test system: CCRF-CEM leukemia
[10] = test system: SW-620 colon
[11] = test system: IGROV1 ovarian
[12] = test system: SF-295 CNS
[13] = test system: OVCAR-5 ovarian
[14] = test system: SNB-19 CNS
[15] = test system: EKVX NSCLC
[16] = test system: MDA-MB-435
[17] = test system: NCI-H460 lung
[18] = test system: SF-268 CNS
[19] = test system: COLO 205 colon
[20] = test system: SK-OV-3 ovarian
[21] = test system: UO-31 renal
[22] = test system: ACHN renal
[23] = test system: HS 578T breast
[24] = test system: U251 CNS
[25] = test system: K-562 leukemia
[26] = test system: SNB-75 CNS
[27] = test system: HL-60(TB) leukemia
[28] = test system: HT29 colon
[29] = test system: MDA-N
[30] = test system: CAKI-1 renal
[31] = test system: DU-145 prostate
[32] = test system: SK-MEL-5 melanoma
[33] = test system: NCI/ADR-RES ovarian
[34] = test system: UACC-62 melanoma
[35] = test system: OVCAR-8 ovarian
[36] = test system: HOP-92 NSCLC
[37] = test system: BT-549 breast
[38] = test system: KM12 colon
[39] = test system: T-47D breast
[40] = test system: SN12C renal
[41] = test system: MDA-MB-231 breast
[42] = test system: TK-10 renal
[43] = test system: A498 renal
[44] = test system: M14 melanoma
[45] = test system: HCT-116 colon
[46] = test system: OVCAR-4 ovarian
[47] = test system: NCI-H23 lung
[48] = test system: MCF7 breast
[49] = test system: UACC-257 melanoma
[50] = test system: HOP-62 NSCLC
[51] = test system: RXF 393 renal
[52] = test system: SF-539 CNS
[53] = test system: 786-0 renal
[54] = test system: RPMI-8226 leukemia
[55] = test system: OVCAR-3 ovarian
[56] = test system: HCT-15 colon

CC#CC(O)(C(=O)OC1CCN(C)CC1)C(C)C (configuration not stated)
GI50 [1]: > 100 µM
TGI [1]: > 100 µM
GI50 [2]: > 100 µM
TGI [2]: > 100 µM
GI50 [3]: > 100 µM
TGI [3]: > 100 µM
GI50 [4]: > 100 µM
TGI [4]: > 100 µM
GI50 [5]: > 100 µM
TGI [5]: > 100 µM
GI50 [6]: > 100 µM
TGI [6]: > 100 µM
GI50 [7]: > 100 µM
TGI [7]: > 100 µM
GI50 [8]: > 100 µM
TGI [8]: > 100 µM
GI50 [9]: > 100 µM
TGI [9]: > 100 µM
GI50 [10]: > 100 µM
TGI [10]: > 100 µM
GI50 [11]: > 100 µM
TGI [11]: > 100 µM
GI50 [12]: > 100 µM
TGI [12]: > 100 µM
GI50 [13]: > 100 µM
TGI [13]: > 100 µM
GI50 [14]: > 100 µM
TGI [14]: > 100 µM
GI50 [15]: > 100 µM
TGI [15]: > 100 µM
GI50 [16]: > 100 µM
TGI [16]: > 100 µM
GI50 [17]: > 100 µM
TGI [17]: > 100 µM
GI50 [18]: > 100 µM
TGI [18]: > 100 µM
GI50 [19]: > 100 µM
TGI [19]: > 100 µM
GI50 [20]: > 100 µM
TGI [20]: > 100 µM
GI50 [21]: > 100 µM
TGI [21]: > 100 µM
GI50 [22]: > 100 µM
TGI [22]: > 100 µM
GI50 [23]: > 100 µM
TGI [23]: > 100 µM
GI50 [24]: > 100 µM
TGI [24]: > 100 µM
GI50 [25]: > 100 µM
TGI [25]: > 100 µM
GI50 [26]: > 100 µM
TGI [26]: > 100 µM
GI50 [27]: > 100 µM
TGI [27]: > 100 µM
GI50 [28]: > 100 µM
TGI [28]: > 100 µM
GI50 [29]: > 100 µM
TGI [29]: > 100 µM
GI50 [30]: > 100 µM
TGI [30]: > 100 µM
GI50 [31]: > 100 µM
TGI [31]: > 100 µM
GI50 [32]: > 100 µM
TGI [32]: > 100 µM
GI50 [33]: > 100 µM
TGI [33]: > 100 µM
GI50 [34]: > 100 µM
TGI [34]: > 100 µM
GI50 [35]: > 100 µM
TGI [35]: > 100 µM
GI50 [36]: > 100 µM
TGI [36]: > 100 µM
GI50 [37]: > 100 µM
TGI [37]: > 100 µM
GI50 [38]: > 100 µM
TGI [38]: > 100 µM
GI50 [39]: > 100 µM
TGI [39]: > 100 µM
GI50 [40]: > 100 µM
TGI [40]: > 100 µM
GI50 [41]: > 100 µM
TGI [41]: > 100 µM
GI50 [42]: > 100 µM
TGI [42]: > 100 µM
GI50 [43]: > 100 µM
TGI [43]: > 100 µM
GI50 [44]: > 100 µM
TGI [44]: > 100 µM
GI50 [45]: > 100 µM
TGI [45]: > 100 µM
GI50 [46]: > 100 µM
TGI [46]: > 100 µM
GI50 [47]: > 100 µM
TGI [47]: > 100 µM
GI50 [48]: > 100 µM
TGI [48]: > 100 µM
GI50 [49]: > 100 µM
TGI [49]: > 100 µM
GI50 [50]: > 100 µM
TGI [50]: > 100 µM
GI50 [51]: > 100 µM
TGI [51]: > 100 µM
GI50 [52]: > 100 µM
TGI [52]: > 100 µM
GI50 [53]: > 100 µM
TGI [53]: > 100 µM
GI50 [54]: > 100 µM
TGI [54]: > 100 µM
GI50 [55]: > 100 µM
TGI [55]: > 100 µM
GI50 [56]: > 100 µM
TGI [56]: > 100 µM
